According to ChEMBL document CHEMBL1201862, “PubChem BioAssay data set” (2004):
The list shows a part of the results. Rule as the data show it: active = GI50 up to about 1.1 µM and inactive = higher. Entries with a potency or affinity are not part of this list. These assays gave more results; the selection is not random.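 Values below derive from 48-hour exposures of cells grown in 96-well plates, with endpoints linearly interpolated between the two concentrations bracketing the appropriate inhibition level. GI50 = concentration required for 50% inhibition of growth.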

Each compound was assayed on MDA-MB-435 (assay: NCI tumour cell line growth inhibition, 48 h).

Q: For `COc1ccc2nccc(C=O)c2c1`, which GI50 is on record?
A: inactive: 3.9 µM

Q: How did the GI50 turn out when `O=[As](O)(O)O` was run?
A: inactive: > 100 µM

Q: Which GI50 does the source give for `ClCCSc1c2ccccc2nc2ccccc12` here?
A: inactive: 11.8 µM

Q: `O=[N+]([O-])c1ncn(F)c1[N+](=O)[O-]` was tested. Which GI50 did it give?
A: inactive: > 100 µM

Q: Which GI50 does the source give for `O=[N+]([O-])C1([N+](=O)[O-])CCCc2nonc21` here?
A: inactive: 42 µM

Q: Which GI50 does the source give for `C[S+](N)(=O)CCC(N)P(=O)(O)O` (stereo not drawn) here?
A: inactive: 41.5 µM

Q: Which GI50 does the source give for `COP(C)(=O)C(N)Cc1ccccc1` (stereo not drawn) here?
A: inactive: 43.3 µM

Q: With `Cc1ccc2ccc3ccc4ccccc4c3c2c1.O=C1c2cc([N+](=O)[O-])ccc2-c2c1cc([N+](=O)[O-])cc2[N+](=O)[O-]` as the compound, how does the GI50 read?
A: inactive: 2.72 µM

Q: With `O=C1CCN2CCCC12` (stereo not drawn) as the compound, how does the GI50 read?
A: inactive: 40.6 µM

Q: `O=[N+]([O-])C1([N+](=O)[O-])COCOC1` was tested. Which GI50 did it give?
A: inactive: 17.9 µM

Q: `CCCCCCCCCCCCCNCC(C)O` (stereo not drawn) was tested. Which GI50 did it give?
A: inactive: 11.1 µM

Q: Which GI50 does the source give for `NNc1nc2nonc2nc1NN` here?
A: inactive: 43.5 µM

Q: How did the GI50 turn out when `CCCC[S+](N)(=O)CCC(N)P(=O)(O)O` (stereo not drawn) was run?
A: inactive: 6.38 µM

Q: `COc1ccc([N+](=O)[O-])c(C[N+](C)(CCCl)CCCl)c1` was tested. Which GI50 did it give?
A: inactive: > 100 µM

Q: `COc1ccc(C[N+](C)(CCCl)CCCl)c([N+](=O)[O-])c1` was tested. Which GI50 did it give?
A: inactive: > 100 µM

Q: How did the GI50 turn out when `Cc1ccc2ccc(C)c(C)c2c1.O=[N+]([O-])c1cc([N+](=O)[O-])c(O)c([N+](=O)[O-])c1O` was run?
A: inactive: > 100 µM

Q: How did the GI50 turn out when `O[C@@H]1CCN2CCC[C@H]12` was run?
A: inactive: 49.9 µM

Q: For `Cc1ccc([N+](=O)[O-])c(C[N+](C)(CCCl)CCCl)c1`, which GI50 is on record?
A: inactive: 10.4 µM

The compounds below were run on MDA-N (assay: NCI tumour cell line growth inhibition, 48 h).

Q: Which GI50 does the source give for `O=[As](O)(O)O` here?
A: inactive: > 100 µM

Q: For `ClCCSc1c2ccccc2nc2ccccc12`, which GI50 is on record?
A: inactive: 12.6 µM

Q: For `O=[N+]([O-])C1([N+](=O)[O-])CCCc2nonc21`, which GI50 is on record?
A: inactive: 4.73 µM

Q: Which GI50 does the source give for `C[S+](N)(=O)CCC(N)P(=O)(O)O` (stereo not drawn) here?
A: inactive: 24 µM

Q: With `COP(C)(=O)C(N)Cc1ccccc1` (stereo not drawn) as the compound, how does the GI50 read?
A: inactive: 42 µM

Q: For `Cc1ccc2ccc3ccc4ccccc4c3c2c1.O=C1c2cc([N+](=O)[O-])ccc2-c2c1cc([N+](=O)[O-])cc2[N+](=O)[O-]`, which GI50 is on record?
A: inactive: 2.57 µM

Q: Which GI50 does the source give for `O=C1CCN2CCCC12` (stereo not drawn) here?
A: inactive: 62.2 µM

Q: Which GI50 does the source give for `O=[N+]([O-])C1([N+](=O)[O-])COCOC1` here?
A: inactive: 17.7 µM

Q: With `NNc1nc2nonc2nc1NN` as the compound, how does the GI50 read?
A: inactive: 39 µM

Q: For `CCCC[S+](N)(=O)CCC(N)P(=O)(O)O` (stereo not drawn), which GI50 is on record?
A: inactive: 24.4 µM

Q: With `COc1ccc([N+](=O)[O-])c(C[N+](C)(CCCl)CCCl)c1` as the compound, how does the GI50 read?
A: inactive: > 100 µM

Q: With `COc1ccc(C[N+](C)(CCCl)CCCl)c([N+](=O)[O-])c1` as the compound, how does the GI50 read?
A: inactive: > 100 µM

Q: How did the GI50 turn out when `Cc1ccc2ccc(C)c(C)c2c1.O=[N+]([O-])c1cc([N+](=O)[O-])c(O)c([N+](=O)[O-])c1O` was run?
A: inactive: > 100 µM

Q: How did the GI50 turn out when `O[C@@H]1CCN2CCC[C@H]12` was run?
A: inactive: 98.4 µM

Q: `Cc1ccc([N+](=O)[O-])c(C[N+](C)(CCCl)CCCl)c1` was tested. Which GI50 did it give?
A: inactive: 13.5 µM
